# Source: ChEMBL document CHEMBL1130416, “Synthesis and biological activities of (R)-5,6-dihydro-N,N-dimethyl-4H-imidazo[4,5,1-ij]quinolin-5-amine and its metabolites” (J Med Chem, 1997)
# Sequences of proteins named here, by UniProt entry; tags and fusion partners are left off. A change or cut given only in a name is not applied to a line headed by its entry.
# UniProt P41145: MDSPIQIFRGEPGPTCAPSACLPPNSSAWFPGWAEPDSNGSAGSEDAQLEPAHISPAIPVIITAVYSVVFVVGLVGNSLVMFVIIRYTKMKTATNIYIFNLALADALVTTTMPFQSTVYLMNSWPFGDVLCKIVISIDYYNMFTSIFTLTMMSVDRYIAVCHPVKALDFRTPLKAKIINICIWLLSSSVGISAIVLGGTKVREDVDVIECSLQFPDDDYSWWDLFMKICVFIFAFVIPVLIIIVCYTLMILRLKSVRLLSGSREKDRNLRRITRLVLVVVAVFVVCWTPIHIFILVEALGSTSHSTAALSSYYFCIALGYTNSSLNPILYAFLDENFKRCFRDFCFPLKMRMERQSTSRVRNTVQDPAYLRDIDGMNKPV
# UniProt P41143, whole entry, looked up: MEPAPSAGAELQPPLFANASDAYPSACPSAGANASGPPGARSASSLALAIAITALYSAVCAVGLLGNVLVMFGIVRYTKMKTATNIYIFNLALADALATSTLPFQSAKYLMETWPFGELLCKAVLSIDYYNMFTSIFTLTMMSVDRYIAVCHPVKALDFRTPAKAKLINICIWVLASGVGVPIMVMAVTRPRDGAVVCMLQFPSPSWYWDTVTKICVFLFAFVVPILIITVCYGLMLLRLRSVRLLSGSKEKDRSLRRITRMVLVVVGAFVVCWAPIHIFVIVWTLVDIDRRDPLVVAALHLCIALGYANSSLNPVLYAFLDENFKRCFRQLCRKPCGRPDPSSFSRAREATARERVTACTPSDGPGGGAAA
# UniProt P14867: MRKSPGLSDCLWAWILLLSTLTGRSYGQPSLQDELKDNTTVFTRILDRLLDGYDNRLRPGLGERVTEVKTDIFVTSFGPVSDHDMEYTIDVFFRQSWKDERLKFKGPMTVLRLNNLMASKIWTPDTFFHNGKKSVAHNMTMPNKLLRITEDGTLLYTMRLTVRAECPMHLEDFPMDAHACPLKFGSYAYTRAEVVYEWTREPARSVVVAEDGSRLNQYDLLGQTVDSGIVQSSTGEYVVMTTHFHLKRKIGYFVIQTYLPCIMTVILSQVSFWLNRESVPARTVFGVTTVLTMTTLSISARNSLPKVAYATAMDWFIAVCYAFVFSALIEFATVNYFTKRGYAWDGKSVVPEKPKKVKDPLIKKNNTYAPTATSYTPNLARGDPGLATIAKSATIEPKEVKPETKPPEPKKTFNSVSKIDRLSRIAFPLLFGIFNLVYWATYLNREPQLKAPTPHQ
# UniProt Q99928: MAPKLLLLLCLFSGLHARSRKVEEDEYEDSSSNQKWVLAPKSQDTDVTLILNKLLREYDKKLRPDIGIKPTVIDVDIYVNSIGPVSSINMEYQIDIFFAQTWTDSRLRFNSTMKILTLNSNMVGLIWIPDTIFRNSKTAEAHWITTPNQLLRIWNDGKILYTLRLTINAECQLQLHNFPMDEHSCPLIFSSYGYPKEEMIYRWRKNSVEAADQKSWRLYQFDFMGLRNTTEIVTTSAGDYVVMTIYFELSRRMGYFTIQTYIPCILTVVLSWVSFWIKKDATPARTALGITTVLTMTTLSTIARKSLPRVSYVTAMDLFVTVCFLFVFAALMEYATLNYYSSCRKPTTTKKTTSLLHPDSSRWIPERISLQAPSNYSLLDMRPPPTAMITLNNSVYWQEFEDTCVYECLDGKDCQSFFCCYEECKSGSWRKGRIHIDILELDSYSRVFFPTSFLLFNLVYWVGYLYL
# UniProt O00591: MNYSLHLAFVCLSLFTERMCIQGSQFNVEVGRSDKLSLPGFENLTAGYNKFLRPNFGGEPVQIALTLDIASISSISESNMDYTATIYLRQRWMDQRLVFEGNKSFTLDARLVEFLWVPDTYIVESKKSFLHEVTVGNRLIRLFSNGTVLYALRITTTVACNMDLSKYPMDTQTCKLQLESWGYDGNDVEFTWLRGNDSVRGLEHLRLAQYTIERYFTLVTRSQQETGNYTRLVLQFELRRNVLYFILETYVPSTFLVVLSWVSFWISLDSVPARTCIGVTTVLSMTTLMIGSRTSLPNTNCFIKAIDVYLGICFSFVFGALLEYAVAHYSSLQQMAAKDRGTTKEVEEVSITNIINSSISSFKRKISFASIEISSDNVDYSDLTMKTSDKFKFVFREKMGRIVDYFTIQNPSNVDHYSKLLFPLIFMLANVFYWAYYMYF
# UniProt O14764: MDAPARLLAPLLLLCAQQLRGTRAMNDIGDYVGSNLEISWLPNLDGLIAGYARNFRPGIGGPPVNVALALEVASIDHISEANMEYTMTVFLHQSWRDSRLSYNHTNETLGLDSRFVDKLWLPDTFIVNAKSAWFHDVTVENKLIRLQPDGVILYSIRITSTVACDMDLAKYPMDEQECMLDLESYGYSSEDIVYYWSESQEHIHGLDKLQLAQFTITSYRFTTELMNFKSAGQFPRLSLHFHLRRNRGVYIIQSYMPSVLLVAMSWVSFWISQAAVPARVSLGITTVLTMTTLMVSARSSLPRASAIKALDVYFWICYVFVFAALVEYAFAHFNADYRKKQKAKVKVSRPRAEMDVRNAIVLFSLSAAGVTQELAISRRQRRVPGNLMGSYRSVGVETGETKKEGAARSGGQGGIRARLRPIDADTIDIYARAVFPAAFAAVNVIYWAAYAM
# UniProt Q8N1C3: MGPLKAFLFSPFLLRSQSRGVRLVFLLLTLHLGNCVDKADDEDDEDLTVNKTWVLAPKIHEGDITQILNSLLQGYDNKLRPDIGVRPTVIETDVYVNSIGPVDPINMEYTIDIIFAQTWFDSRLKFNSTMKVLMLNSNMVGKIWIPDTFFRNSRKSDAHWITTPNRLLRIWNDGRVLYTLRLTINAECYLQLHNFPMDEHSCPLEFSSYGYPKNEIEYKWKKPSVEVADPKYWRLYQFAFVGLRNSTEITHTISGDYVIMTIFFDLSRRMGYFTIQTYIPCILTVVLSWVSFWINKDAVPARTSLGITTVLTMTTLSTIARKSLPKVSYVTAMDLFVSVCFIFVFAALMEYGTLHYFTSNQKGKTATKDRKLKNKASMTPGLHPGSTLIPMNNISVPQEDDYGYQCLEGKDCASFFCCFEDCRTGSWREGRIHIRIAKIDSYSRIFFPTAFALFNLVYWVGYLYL
# UniProt P78334: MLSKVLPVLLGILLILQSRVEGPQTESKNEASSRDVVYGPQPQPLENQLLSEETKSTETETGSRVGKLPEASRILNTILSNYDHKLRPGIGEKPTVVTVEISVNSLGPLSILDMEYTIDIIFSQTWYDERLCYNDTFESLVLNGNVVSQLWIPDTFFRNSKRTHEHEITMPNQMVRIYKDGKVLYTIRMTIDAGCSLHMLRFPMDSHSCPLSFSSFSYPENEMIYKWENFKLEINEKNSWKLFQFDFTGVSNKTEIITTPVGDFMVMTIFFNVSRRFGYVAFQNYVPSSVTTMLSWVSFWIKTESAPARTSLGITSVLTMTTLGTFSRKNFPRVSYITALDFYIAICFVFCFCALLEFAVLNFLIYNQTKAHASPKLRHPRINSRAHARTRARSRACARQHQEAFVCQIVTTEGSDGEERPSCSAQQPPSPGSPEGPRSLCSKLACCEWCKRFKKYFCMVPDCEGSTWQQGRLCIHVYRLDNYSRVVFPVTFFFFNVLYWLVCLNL
# UniProt P31644: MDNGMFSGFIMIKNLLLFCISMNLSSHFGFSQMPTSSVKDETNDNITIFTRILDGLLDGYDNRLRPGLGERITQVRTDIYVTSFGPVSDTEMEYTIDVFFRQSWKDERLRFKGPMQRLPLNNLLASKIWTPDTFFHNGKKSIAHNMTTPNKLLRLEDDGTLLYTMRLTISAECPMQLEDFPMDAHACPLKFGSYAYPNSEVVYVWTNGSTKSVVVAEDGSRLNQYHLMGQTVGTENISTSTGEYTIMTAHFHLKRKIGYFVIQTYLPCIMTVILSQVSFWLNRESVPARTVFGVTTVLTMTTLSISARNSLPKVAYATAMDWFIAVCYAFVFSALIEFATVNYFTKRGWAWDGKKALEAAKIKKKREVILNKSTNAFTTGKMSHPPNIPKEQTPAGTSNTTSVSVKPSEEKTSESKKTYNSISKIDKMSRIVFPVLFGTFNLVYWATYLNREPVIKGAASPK
# UniProt Q16445: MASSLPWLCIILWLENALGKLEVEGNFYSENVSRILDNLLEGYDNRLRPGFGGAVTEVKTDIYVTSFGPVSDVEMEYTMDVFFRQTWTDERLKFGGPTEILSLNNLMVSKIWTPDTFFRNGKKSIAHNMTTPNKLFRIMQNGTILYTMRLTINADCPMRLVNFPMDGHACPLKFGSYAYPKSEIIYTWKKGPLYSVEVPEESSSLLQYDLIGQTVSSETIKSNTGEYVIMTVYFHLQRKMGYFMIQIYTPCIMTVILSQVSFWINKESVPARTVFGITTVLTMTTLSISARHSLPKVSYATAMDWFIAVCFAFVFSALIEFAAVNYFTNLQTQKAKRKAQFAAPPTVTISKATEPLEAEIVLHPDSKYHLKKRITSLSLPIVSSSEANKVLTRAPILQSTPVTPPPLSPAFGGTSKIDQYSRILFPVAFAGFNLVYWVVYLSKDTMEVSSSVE
# UniProt P20309: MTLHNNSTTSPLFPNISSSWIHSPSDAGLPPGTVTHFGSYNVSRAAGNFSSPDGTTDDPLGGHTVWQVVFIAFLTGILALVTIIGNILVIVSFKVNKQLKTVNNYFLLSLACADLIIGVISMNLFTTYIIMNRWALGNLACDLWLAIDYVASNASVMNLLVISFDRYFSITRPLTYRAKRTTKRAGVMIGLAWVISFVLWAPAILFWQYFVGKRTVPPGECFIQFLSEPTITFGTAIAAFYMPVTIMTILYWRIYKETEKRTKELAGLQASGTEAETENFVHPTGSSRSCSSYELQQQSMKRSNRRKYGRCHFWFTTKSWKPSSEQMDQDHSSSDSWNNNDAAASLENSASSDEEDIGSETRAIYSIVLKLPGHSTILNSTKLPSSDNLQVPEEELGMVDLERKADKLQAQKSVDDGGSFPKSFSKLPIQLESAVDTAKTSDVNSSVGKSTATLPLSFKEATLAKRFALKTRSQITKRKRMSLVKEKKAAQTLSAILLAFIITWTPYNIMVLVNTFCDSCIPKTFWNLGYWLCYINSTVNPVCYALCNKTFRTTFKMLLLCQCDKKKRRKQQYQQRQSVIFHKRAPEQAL
# UniProt P08173: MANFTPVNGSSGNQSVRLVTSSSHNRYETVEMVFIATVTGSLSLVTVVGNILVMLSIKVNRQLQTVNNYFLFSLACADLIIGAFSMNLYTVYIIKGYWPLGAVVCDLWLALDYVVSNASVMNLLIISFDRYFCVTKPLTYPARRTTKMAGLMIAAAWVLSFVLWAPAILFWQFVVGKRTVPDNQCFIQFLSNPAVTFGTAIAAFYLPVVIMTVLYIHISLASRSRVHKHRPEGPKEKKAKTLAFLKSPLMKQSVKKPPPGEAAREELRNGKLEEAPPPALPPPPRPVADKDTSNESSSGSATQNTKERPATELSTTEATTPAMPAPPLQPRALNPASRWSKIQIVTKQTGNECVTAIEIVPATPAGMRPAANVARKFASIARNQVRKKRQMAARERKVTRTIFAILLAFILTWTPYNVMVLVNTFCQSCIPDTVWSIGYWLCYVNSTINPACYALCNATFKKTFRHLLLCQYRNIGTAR
# UniProt P08172: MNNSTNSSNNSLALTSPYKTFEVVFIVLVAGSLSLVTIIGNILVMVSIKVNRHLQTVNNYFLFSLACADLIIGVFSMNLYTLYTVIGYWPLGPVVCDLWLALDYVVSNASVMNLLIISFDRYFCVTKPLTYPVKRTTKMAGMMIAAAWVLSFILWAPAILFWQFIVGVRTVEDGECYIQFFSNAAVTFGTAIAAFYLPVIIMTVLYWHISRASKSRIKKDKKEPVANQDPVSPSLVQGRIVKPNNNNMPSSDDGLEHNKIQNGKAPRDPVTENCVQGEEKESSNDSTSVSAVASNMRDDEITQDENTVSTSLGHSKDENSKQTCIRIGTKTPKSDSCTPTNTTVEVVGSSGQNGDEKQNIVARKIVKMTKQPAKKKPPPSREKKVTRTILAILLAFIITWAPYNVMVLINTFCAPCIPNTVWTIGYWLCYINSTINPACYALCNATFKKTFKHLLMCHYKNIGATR
# UniProt P08912: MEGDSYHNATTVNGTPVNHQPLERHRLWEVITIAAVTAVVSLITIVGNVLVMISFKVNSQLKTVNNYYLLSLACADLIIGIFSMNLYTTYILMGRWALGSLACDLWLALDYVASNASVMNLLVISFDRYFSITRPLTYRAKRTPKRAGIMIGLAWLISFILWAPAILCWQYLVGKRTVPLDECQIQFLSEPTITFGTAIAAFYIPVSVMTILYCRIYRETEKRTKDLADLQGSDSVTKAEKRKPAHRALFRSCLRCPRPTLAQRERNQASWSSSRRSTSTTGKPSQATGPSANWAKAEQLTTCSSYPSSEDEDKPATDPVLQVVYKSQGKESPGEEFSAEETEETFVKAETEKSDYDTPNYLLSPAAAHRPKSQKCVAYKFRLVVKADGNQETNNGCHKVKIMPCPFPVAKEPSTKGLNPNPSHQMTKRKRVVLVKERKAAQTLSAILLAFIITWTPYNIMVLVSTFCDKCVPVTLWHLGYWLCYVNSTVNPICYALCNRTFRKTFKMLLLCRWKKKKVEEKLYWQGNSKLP
# Columns and labels:
# [1] = target: Opioid receptors; mu/kappa/delta (Homo sapiens) (UniProt P41145+P41143+P35372); assay: Percent inhibition against Opioid receptors using [3H]etorphine at 1 uM
# [2] = target: D(4) dopamine receptor (Homo sapiens) (UniProt P21917); assay: Percent inhibition against Dopamine receptor D4 using [3H]spiperone at 1 uM
# [3] = target: D(1A) dopamine receptor (Homo sapiens) (UniProt P21728); assay: Percent inhibition against Dopamine receptor D1 using [3H]-SCH- 23990 at 1 uM
# [4] = target: Adrenergic receptor beta (Homo sapiens) (UniProt P08588+P07550+P13945); assay: Inhibition of [3H]dihydroalprenolol binding to beta adrenergic receptor at 1 uM
# [5] = target: Adrenergic receptor alpha-1 (Homo sapiens) (UniProt P35348+P25100+P35368); assay: Percent inhibition against alpha-1 adrenergic receptor using [3H]prazosin at 1 uM
# [6] = target: Adrenergic receptor alpha-2 (Homo sapiens) (UniProt P08913+P18825+P18089); assay: Percent inhibition against alpha-2 adrenergic receptor using [3H]clonidine at 1 uM
# [7] = target: 5-hydroxytryptamine receptor 2A (Homo sapiens) (UniProt P28223); assay: Percent inhibition against 5-hydroxytryptamine 2A receptor using [3H]ketanserin at 1 uM
# [8] = target: GABA-A receptor; anion channel (Homo sapiens) (UniProt P14867+P47870+P18507+P28472+P48169+Q99928+Q9UN88+P34903+O00591+O14764+Q8N1C3+P18505+P78334+P47869+P31644+Q16445); assay: Percent inhibition of [3H]flunitrazepam binding to GABA-A benzodiazepine receptor at 1 uM
# [9] = target: Muscarinic acetylcholine receptor (Homo sapiens) (UniProt P20309+P08173+P11229+P08172+P08912); assay: Percent inhibition against Muscarinic acetylcholine receptor using [3H]oxotremorine-M at 1 uM
compound,measurement,setting,value
CN(C)[C@H]1Cc2cccc3nc(O)n(c23)C1,inhibition,[1],< 50%
same,inhibition,[2],< 50%
same,inhibition,[3],< 50%
same,inhibition,[4],< 50%
same,inhibition,[5],< 50%
same,inhibition,[6],< 50%
same,inhibition,[7],< 50%
same,inhibition,[8],< 50%
same,inhibition,[9],< 50%
CN[C@@H]1Cc2cccc3ncn(c23)C1,inhibition,[1],64%
same,inhibition,[2],64%
same,inhibition,[3],64%
same,inhibition,[4],64%
same,inhibition,[5],64%
same,inhibition,[6],64%
same,inhibition,[7],64%
same,inhibition,[8],64%
same,inhibition,[9],64%
CN(C)[C@H]1Cc2cccc3ncn(c23)C1,inhibition,[1],< 50%
same,inhibition,[2],< 50%
same,inhibition,[3],< 50%
same,inhibition,[4],< 50%
same,inhibition,[5],< 50%
same,inhibition,[6],< 50%
same,inhibition,[7],< 50%
same,inhibition,[8],< 50%
same,inhibition,[9],< 50%
CN(C)[C@@H]1Cc2cccc3nc(O)n(c23)C1,inhibition,[1],< 30%
same,inhibition,[2],< 30%
same,inhibition,[3],< 30%
same,inhibition,[4],< 30%
same,inhibition,[5],< 30%
same,inhibition,[6],< 30%
same,inhibition,[7],< 30%
same,inhibition,[8],< 30%
same,inhibition,[9],< 30%
CCCN[C@@H]1Cc2cccc3nc(O)n(c23)C1,inhibition,[1],< 30%
same,inhibition,[4],< 30%
same,inhibition,[5],< 30%
same,inhibition,[6],< 30%
same,inhibition,[7],< 30%
same,inhibition,[8],< 30%
same,inhibition,[9],< 30%
CN[C@H]1Cc2cccc3nc(O)n(c23)C1,inhibition,[1],< 50%
same,inhibition,[4],< 50%
same,inhibition,[5],< 50%
same,inhibition,[6],< 50%
same,inhibition,[7],< 50%
same,inhibition,[8],< 50%
same,inhibition,[9],< 50%
CN(C)[C@@H]1Cc2cccc3ncn(c23)C1,inhibition,[1],< 30%
same,inhibition,[2],< 30%
same,inhibition,[3],< 30%
same,inhibition,[4],< 30%
same,inhibition,[5],< 30%
same,inhibition,[6],< 30%
same,inhibition,[7],< 30%
same,inhibition,[8],< 30%
same,inhibition,[9],< 30%
CN[C@@H]1Cc2cccc3[nH]c(=O)n(c23)C1 [SUMANIROLE],inhibition,[1],< 30%
same,inhibition,[4],< 30%
same,inhibition,[5],< 30%
same,inhibition,[6],< 30%
same,inhibition,[7],< 30%
same,inhibition,[8],< 30%
same,inhibition,[9],< 30%
